Reference: PMC12833874 (Journal of Medicinal Chemistry, 2025)

Chains of the proteins cited; added tags and fusions are not shown. Lines headed by an entry give the natural chain unless they say otherwise; changes in a name come on top.
UniProt P41146: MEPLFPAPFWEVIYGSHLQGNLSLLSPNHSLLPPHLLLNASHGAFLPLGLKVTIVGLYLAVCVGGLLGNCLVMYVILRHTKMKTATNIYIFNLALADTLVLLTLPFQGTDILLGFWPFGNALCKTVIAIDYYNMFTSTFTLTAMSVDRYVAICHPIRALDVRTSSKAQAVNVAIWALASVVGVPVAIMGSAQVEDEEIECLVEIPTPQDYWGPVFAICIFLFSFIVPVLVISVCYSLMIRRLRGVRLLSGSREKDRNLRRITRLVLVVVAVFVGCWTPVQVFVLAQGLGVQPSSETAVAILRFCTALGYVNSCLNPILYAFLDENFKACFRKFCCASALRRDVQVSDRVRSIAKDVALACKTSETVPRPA

Legend:
NOPr [1] = target: T1, NOPr (Homo sapiens, UniProt P41146); assay: TR-FRET kinetic binding, Lumi4-Tb-SNAP-NOPr-CHO membranes
Method: (§1) For 13g-h, the homogeneous TR-FRET (HTRF) ratio [(acceptor λem (665 nM)/donor λem (620 nM) × 10000)] is plotted against ligand concentration (nM) for the total binding (solid circle) and nonspecific binding (NSB) (hollow circle). Kinetic binding of (c) 13g and (d) 13h to Lumi4-Tb SNAP-NOPr-CHO membranes was measured over 15 min to determine the NOPr Ligand kinetic parameters in Table . For each concentration applied (0–50 nM), the specific labeling (total-NSB) HTRF ratio × 10,000 is plotted against time (minutes). For end point saturation binding assays, data represent the mean ± SEM of n = 3 experiments performed in duplicate, and for kinetic binding studies, all data represent the mean of n = 3 experiments.
Measurements were taken over 15 min, until a steady state was achieved, and data were globally fitted to a model to derive parameters provided in Table . […] Importantly, these interactions are sufficient for high affinity binding, while residence time is not excessively long, making the ligands well-suited as tracers for performing accurate binding experiments and kinetic studies on unlabeled NOPr ligands.
All ligands were prepared in TR-FRET buffer, consisting of Hanks’ Balanced Salt Solution (Sigma-Aldrich H6648) (KCl 5 mM, KH2PO4 0.4 mM, NaHCO3 4 mM, NaCl 137 mM, Na2HPO4 0.3 mM), Pluronic-F127 (0.02% w/v), DMSO (1% v/v), and glucose (1 mg.mL^–1), adjusted to pH 7.4. Membrane aliquots were thawed on ice prior to use, and membrane suspensions [membrane (0.05 μg.μL^–1), Gpp(NH)p (100 μM), and saponin (50 μg.mL^–1)] were prepared in TR-FRET buffer. To ensure homogeneity, the membrane suspension was passed through a 27-gauge needle before use. Measurements were made in low-binding 384-well optiplates (PerkinElmer) on a PHERAstar (BMG Labtech) plate reader using the HTRF module [337 nm excitation with dual emission detection at 620 nm (terbium cryptate donor) and 665 nm emission (fluorescent ligand acceptor)] at a focal height of 11.4 mm. […]

NOPr [2] = target: T1, NOPr; assay: TR-FRET equilibrium saturation binding, Lumi4Tb-SNAP-NOPr CHO membranes; conditions: NOPr vs MOPr, DOPr, KOPr
Method: The levels of specific binding (total – nonspecific) were calculated and used to determine the dissociation constant (K D) as a measure of affinity. Specific binding curves are shown in Supporting Figure S2. […] Nonetheless, both ligand high affinity and low background signal are promising properties for fluorescence-based studies at the NOPr, enabling low concentrations to be used and improving signal-to-noise ratio. To further investigate the binding characteristics 13g-h, kinetic studies were carried out.
as §1, with “experiments. […]” for “experiments.”

NOPr [3] = target: T1, NOPr; assay: TR-FRET saturation binding of 13h in Na+/Gpp(NH)p or NMDG buffer
Method: To investigate the effect of Na^+ and guanine nucleotides on competition binding experiments, as discussed in Section , we decided to perform competition binding experiments in the presence (Figure a) and absence (Figure b) of 100 mM Na^+ ions, which are known to be a negative allosteric modulator of many GPCRs , and a nonhydrolyzable form of guanine triphosphate, Gpp(NH)p (100 mM). To maintain an equivalent ionic strength in the Na^+ free condition, 100 mM of the organic cation N-methyl-D-glucamine (NMDG) was included in the buffer.
Saturation and competition binding experiments were performed as previously described using different buffer conditions. In the sodium and Gpp(NH)-p, free condition experiments were carried out in buffer containing (20 mM HEPES, 100 mM NMDG, 6 mM MgCl2, 1 mM EGTA, and 1 mM EDTA, pH 7.4) and in the sodium and Gpp(NH)-p containing condition buffer containing (20 mM HEPES, 100 mM NaCl, 6 mM MgCl2, 1 mM EGTA, and 1 mM EDTA, pH 7.4) with 100 μM Gpp(NH)-p. […] For saturation experiments, increasing concentrations of 13h (0–400 nM) were used.
Gpp(NH)p (100 µM) + NMDG (100 mM) […]
Figure S4. TR-FRET saturation binding experiments to characterize the afKinity of Kluorescent ligand 13h in
buffers containing a) 100 mM Na+ and 100 mM Gpp(NH)p or b) 100 mM NMDG. […]
circle) and absence (total-binding) (hollow circle) of SB612111 was assessed after 2 hrs at 37° C. […]

**Q.** How did the “K on of 13h relative to 13g” value (NOPr [1]) turn out when `CN1/C(=C/C=C/C=C/C2=[N+](CCCCCC(=O)NCCOc3ccc(CN4CCC[C@@H]4C(=O)NCCCN4CCC5(CC4)OCc4ccccc45)cc3)c3ccc(S(=O)(=O)[O-])cc3C2(C)C)C(C)(C)c2cc(S(=O)(=O)[O-])ccc21.[K+]` [13h, Potassium 1-(6-((2-(4-(((R)-2-((3-(3H-Spiro[isobenzofuran-1,4′-piperidin]-1′-yl)propyl)carbamoyl)pyrrolidin-1-yl)methyl)phenoxy)ethyl)amino)-6-oxohexyl)-3,3-dimethyl-2-((1E,3E)-5-((E)-1,3,3-trimethyl-5-sulfonatoindolin-2-ylidene)penta-1,3-dien-1-yl)-3H-indol-1-ium-5-sulfonate] was run?
**A.** The value was > 7.7 fold.

**Q.** And the koff (NOPr [1]; 0–50 nM, over 15 min)?
**A.** Its koff is 0.00233 s⁻¹.

**Q.** What about the kon (NOPr [1]; 0–50 nM, over 15 min) of the same compound?
**A.** Its kon is 400000 M⁻¹ s⁻¹.

**Q.** And the “selectivity over the other opioid receptors” value (NOPr [2])?
**A.** The value was > 490 fold.

**Q.** And the “K D in Na+ and Gpp(NH)p condition relative to NMDG condition” value (NOPr [3])?
**A.** Its value is “approximately 2 fold”.

**Q.** What about the Kd (NOPr [3]; 100 mM Na+, 100 μM Gpp(NH)p) of the same compound?
**A.** The Kd was 8 nM.
